This note sets out measurements from patent publication US6177078A, “Monoclonal antibody antagonists to IL-3” (Medvet Science Pty Limited, priority 1995, dated 2001).

The target in one test is T1, IL-3Rα chain (Homo sapiens, UniProt P26951).
T1 construct: expressed in transfected cells
T1 sequence (P26951 19-378): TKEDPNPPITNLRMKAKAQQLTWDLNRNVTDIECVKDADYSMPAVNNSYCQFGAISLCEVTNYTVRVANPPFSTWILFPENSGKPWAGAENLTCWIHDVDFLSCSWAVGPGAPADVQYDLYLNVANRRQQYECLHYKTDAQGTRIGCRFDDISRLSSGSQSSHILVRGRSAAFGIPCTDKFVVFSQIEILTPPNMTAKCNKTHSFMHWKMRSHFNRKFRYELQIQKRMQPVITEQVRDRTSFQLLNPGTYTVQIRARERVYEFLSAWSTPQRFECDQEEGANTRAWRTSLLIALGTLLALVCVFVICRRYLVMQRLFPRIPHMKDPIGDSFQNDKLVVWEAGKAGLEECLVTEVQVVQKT
Put plainly: Competition for 125I-7G3 binding to F6 cells by IL-3 or GM-CSF. The settings on record: F6 cells expressing IL-3Rα chain alone, preincubated, 1 nM 125I-7G3. As to the method: (§1) The binding curve was analysed by Scatchard transformation.^31 In competition binding experiments F6 cells or COS cells co-expressing IL-3R α and β chains were preincubated for 2 hours at 4° C. with a range of concentrations of IL-3 or GM-CSF before adding 1 nM of ^125 I-7G3 for a further 2 hours.

Another test concerns the target T2, IL-3R α and β chains (Homo sapiens, UniProt P26951).
T2 construct: expressed in transfected cells; host or cells: COS (monkey fibroblast) cells, transient co-transfection
T2 sequence (P26951 19-378): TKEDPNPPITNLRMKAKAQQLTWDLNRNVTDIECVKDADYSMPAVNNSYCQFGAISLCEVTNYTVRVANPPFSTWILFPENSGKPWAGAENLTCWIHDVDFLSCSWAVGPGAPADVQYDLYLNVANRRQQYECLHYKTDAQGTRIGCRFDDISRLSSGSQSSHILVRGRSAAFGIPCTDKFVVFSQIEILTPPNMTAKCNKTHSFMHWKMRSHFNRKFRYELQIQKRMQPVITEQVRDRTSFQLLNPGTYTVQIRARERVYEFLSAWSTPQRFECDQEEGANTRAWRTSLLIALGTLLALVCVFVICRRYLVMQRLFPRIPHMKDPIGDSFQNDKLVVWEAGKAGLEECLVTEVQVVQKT
The experiment in a line: Competition for 125I-7G3 binding to COS cells expressing IL-3R α and β chains by IL-3 or GM-CSF. Conditions: COS cells transfected with IL-3Rα and β chain, preincubated, 1 nM 125I-7G3. As to the method: as §1

For the next test, the system named is TF-1 cells. The experiment in a line: IL-3-mediated TF-1 cell proliferation assay. The format is cell-based. Conditions: dose-response of IL-3. As to the method: Inhibition of IL-3-mediated TF-1 cell proliferation assay. TF-1 cells were starved of GM-CSF for 24 to 48 hours before setting up proliferation assays. Briefly, 1×10^4 cells were incubated in wells with 0.3 ng/ml of IL-3 in the presence of a range of concentrations of MoAbs (0.00064-64 nM) for 48 hours at 37° C. Wells were pulsed with 0.5 μCi/well ^3 H-thymidine for 4 hours and then harvested onto a glass filter and radioactivities determined by liquid scintillation. The results were expressed as disintegrations per minute (DPM).

B1: IL-3: Recombinant human IL-3 produced in E. coli (protein, UniProt P08700 20-152, looked up)
Interleukin-3: APMTQTTPLKTSWVNCSNMIDEIITHLKQPPLPLLDFNNLNGEDQDILMENNLRRPNLEAFNRAVKSLQNASAIESILKNLLPCLPLATAAPTRHPIHIKDGDWNEFRRKLTFYLKTLENAQAQQTTLSLAIF
B1: the “inhibition of 125I-7G3 binding to the IL-3R” value with IL-3Rα chain is “inhibited”; with IL-3R α and β chains, “inhibited”. In addition, the “concentration stimulating half-maximal proliferation of TF-1 cells” value with TF-1 cells is listed as “approximately 0.3 ng/ml”.
